For one test, the target named is T1, PKA (Bos taurus, UniProt P00517).
T1 construct: purchased Promega
Nature of the test: In vitro PKA kinase activity assay (kemptide / SPA beads).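 Also: Cell-free assay of purified PKA catalytic subunit phosphorylating the 7-mer kemptide substrate, run in MOPS buffer with magnesium acetate and BSA, with blank wells lacking enzyme.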 The settings on record: read-out: IC50 PKA nM; Table 1, most preferred compounds. The format is biochemical. The method, then: 1. […] PKA activity is assayed on a 7-mer peptide, LRRASLG, known as kemptide. The assay is carried out in 96-well plates, in a final volume of 50 μl per well. The reaction mixture includes various concentrations of the inhibitor, 50 mM MOPS, 10 mM MgAc, 0.2 mg/ml BSA, 10 μM ATP, 20 μM Kemptide and 1 μCi γ^32P ATP. Reaction is started with addition of 15 μl of the catalytic subunit of PKA diluted in 0.1 mg/ml BSA, 0.4 U/well. Two blank wells without enzyme are included in every assay. […] Reaction is stopped by addition of 12 μl 200 mM EDTA. 20 μl aliquots of the assay mixture are spotted onto 2 cm^2 phosphocellulose strips (e.g. Whatman P81) and immersed in 75 mM phosphoric acid (10 ml per sample). The phosphocellulose strips are washed 6 times. […] After air drying the strips, radiation is measured by scintillation spectrometry.

For the next test, the target named is T2, PKB (Homo sapiens, UniProt P31749).
T2 construct: His; HA; made in house
Nature of the test: PKB in vitro kinase activity assay (soluble His-HA-PKB / SPA bead screening). The format is biochemical. Conditions: read-out: IC50 PKB nM; Table 1, most preferred compounds. The method, then: 1. […] The enzyme activity measurement is performed as described in the assay for PKA.

A word on the IC50: it is the concentration at which inhibition is half-maximal. Regarding “Arg-Pro-Arg-Nle-Glu-(5-mercaptoaminopropyl-isoquinoline)-Ser-Phe [PTR 6136]”, the half-inhibitory concentration (IC50) came out at 11 nM on PKA and 114 nM on PKB.

Turning to “Arg-Pro-Arg-Nva-Glu-(5-mercaptoaminopropyl-isoquinoline)-Ser-Phe [PTR 6134]”, the half-inhibitory concentration (IC50) at PKA stood at 18 nM; at PKB, 217 nM.

Regarding “Arg-Pro-Arg-Thr-Glu-(5-mercaptoaminopropyl-isoquinoline)-Ser-Phe [PTR 6104]”, the IC50 on PKA and at PKB was 100 nM throughout.

Take “Arg-Pro-Arg-Thr-Glu-(bAla-5-mercaptoaminopropyl-isoquinoline)-Ser-Phe [PTR 6102]”: the 50% inhibitory concentration (IC50) was 100 nM at PKA and 300 nM on PKB.

The values are drawn from patent US7407939B2, “Protein kinase inhibitors comprising ATP mimetics conjugated to peptides or peptidomimetics” (CureGenics Ltd., priority 2001, dated 2008).
